# Legend:
# [1] = test system: A431 cells; test: ADCC of cetuximab against A431 cells by human PBMCs pre-incubated in conditioned medium; format: cell-based; settings: PBMCs pre-incubated in conditioned medium 2 (KATO-III + IFN-γ)
# Description: (§1) KATO-III cells (1.25×10^6 cells) were treated with 25 ng/mL recombinant human IFN-γ. […] Three days later, cells and supernatants were separated by centrifugation. The supernatants were used as conditioned medium. The conditioned medium was used for incubation of human PBMCs or NK cells (section 2.4.2), and measurement of Kyn and Trp (section 2.4.4).
# (§2) NK cells were isolated from human PBMCs using NK isolation kit (Miltenyi Biotec, Cat. No. 130-092-657) and autoMACS instrument. Human PBMCs or NK cells were cultured in the conditioned medium (section 2.4.1) in a CO2 incubator. After 7 days, cells were harvested and counted, and used as effector cells. […] The radioactivity was counted with a microplate scintillation counter (TopCount NXT, PerkinElmer).
# (§3) The percentage of cytotoxicity was calculated according to the following formula: […]
# (§4) E is the experimental released radioactivity (cpm), S is the mean of spontaneous released radioactivity (cpm) by adding the assay medium instead of effector cells and antibody, and M is the mean of maximum released radioactivity (cpm) by adding 10 vol % Triton™ X-100 (Sigma-Aldrich, Cat. No. T9284-100ML) instead of effector cells and antibody. […]
# [2] = test system: SK-BR-3 cells; test: ADCC of trastuzumab against SK-BR-3 cells by human PBMCs pre-incubated in conditioned medium; format: cell-based; settings: PBMCs pre-incubated in conditioned medium 2 (KATO-III + IFN-γ)
# Description: as §1, §2, §3, §4
substance,measurement,setting,value
cetuximab: monoclonal antibody which binds to EGFR [reference compound],ADCC against A431 cells,[1],attenuated
trastuzumab: recombinant humanized anti-HER2 antibody [reference compound],ADCC against SK-BR-3 cells,[2],attenuated
